These results are taken from PubChem BioAssay AID803 (The Scripps Research Institute Molecular Screening Center, 2007).

Protein sequences, listed by entry. Tags and fused reporters are not part of them. Lines headed by an entry give the natural chain unless they say otherwise; changes in a name come on top.
UniProt O43603: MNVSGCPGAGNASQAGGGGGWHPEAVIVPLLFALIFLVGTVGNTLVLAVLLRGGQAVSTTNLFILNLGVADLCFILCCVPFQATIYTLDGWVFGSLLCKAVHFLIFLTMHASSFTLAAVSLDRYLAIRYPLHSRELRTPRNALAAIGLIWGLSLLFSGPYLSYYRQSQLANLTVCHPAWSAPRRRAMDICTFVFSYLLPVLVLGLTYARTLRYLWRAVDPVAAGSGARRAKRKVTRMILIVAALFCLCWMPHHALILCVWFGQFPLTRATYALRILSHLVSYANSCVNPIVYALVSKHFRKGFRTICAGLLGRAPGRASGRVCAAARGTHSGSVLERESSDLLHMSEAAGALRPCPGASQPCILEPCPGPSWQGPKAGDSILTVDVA

The entries are a selection whose mix differs from that of the whole data set. The source made the active and inactive calls. Cut-off read from the data, not from the text of the source: active = activation above about 5% (passing the limit was not always enough); inactive = the rest.

The target of this assay is Galanin receptor type 2 (Homo sapiens) (UniProt O43603). Put plainly: human galanin receptor 2 activators – cell-based, primary screen (AID 803).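 Note: 0% = vehicle buffer wells and 100% = reference agonist at full effect.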 Conditions: GALR2-expressing cells, agonist activation read-out; at 5.6 µM; stronger effect = higher value.
`CCC(C)N(CC(C)C)C(=S)SC(NC(C)=O)C(Cl)(Cl)Cl` (stereo unspecified): the activation was active: 52.1%.
